{"source": "patent US20230056336A1", "about": "(KYVERNA THERAPEUTICS, published 2023)", "binders": {"B1": {"name": "basiliximab fab (Fab, V domains shown)", "VH": "QLQQSGTVLARPGASVKMSCKASGYSFTRYWMHWIKQRPGQGLEWIGAIYPGNSDTSYNQKFEGKAKLTAVTSASTAYMELSSLTHEDSAVYYCSRDYGYYFDFWGQGTTLTVSS", "VL": "QIVSTQSPAIMSASPGEKVTMTCSASSSRSYMQWYQQKPGTSPKRWIYDTSKLASGVPARFSGSGSGTSYSLTISSMEAEDAATYYCHQRSSYTFGGGTKLEIKR", "notes": "The assay used a Fab of basiliximab; Chimeric antibody: human IgG1 constant, mouse variable domains"}}, "molecular_target": "T1, CD25 wild type (WT) CD25-Fc (human, UniProt P01589 22-240)", "T1 construct": "also called CD25 WT; wild type (WT) mature CD25 polypeptide; not shown: Fc part of CD25-Fc", "T1 sequence": "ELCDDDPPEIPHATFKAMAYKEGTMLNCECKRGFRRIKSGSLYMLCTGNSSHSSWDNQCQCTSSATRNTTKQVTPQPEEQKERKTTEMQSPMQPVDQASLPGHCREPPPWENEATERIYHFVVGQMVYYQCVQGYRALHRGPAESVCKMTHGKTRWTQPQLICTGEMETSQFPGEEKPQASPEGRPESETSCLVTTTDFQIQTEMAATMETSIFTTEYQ", "experiment": "BLI; CD25-Fc on anti-hFc biosensor, basiliximab Fab in solution; global 1:1 fit;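 also: biolayer interferometry signals normalized against a reference probe and smoothed with a Savitzky-Golay filter before the global fit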"}
{"binder": "B1", "values": [{"measurement": "Kd", "value": 3.45, "unit": "nM"}, {"measurement": "koff", "value": 0.008, "unit": "s⁻¹"}, {"measurement": "kon", "value": "2.32e+06", "unit": "M⁻¹ s⁻¹"}]}
